Patent publication US20100086607A1, “Self-Assembled Biodegradable Nanoparticles for Medical and Biological Applications” (UNIVERSITY OF SOUTH CAROLINA, priority 2008, published 2010)
Read-outs that look alike come from different tables or passages of the source.

Format: physicochemical
Conditions: for relative absorbance (ELISA, active rhBMP-2): 100 μg/ml in PBS containing 5 wt % PLEOF
Description: The stability and activity of the released protein from the NPs was assessed with recombinant human bone morphogenetic protein-2 (rhBMP-2). To test the stability of the protein, 100 μg/ml rhBMP-2 was incubated in PBS containing 5 wt % PLEOF. Samples were removed with time and the enzymatically active concentration of rhBMP-2 was measured by enzyme-linked immunosorbent assay (ELISA) using a BMP Quantikine kit (R&D Systems, Minneapolis, Minn.). The relative absorbance measured after 1, 15, and 30 days was 100.0±7.5, 102.0±7.6, and 103.0±7.7, respectively. […] To test the activity of the released protein, rhBMP-2 was conjugated to PLAF-NHS NPs, and the suspension was dialyzed against PBS to remove the by-product, N-hydroxy succinimide. 1 mg rhBMP-2 conjugated NPs were placed in microcentrifuge tubes and incubated with 1 ml PBS. At each time point, the suspension was centrifuged, supernatant was removed, and the enzymatically active concentration of rhBMP-2 was measured by ELISA. As incubation time was increased from 1 to 5, 10, 21, 35, and 42 days, the percent of the released protein increased from 2.9±0.2 to 13.8±0.3, 26.1±0.9, 38.6±0.7, 45.8±0.9, and 48.7±0.7%, respectively, and the NPs had completely degraded after 42 days. After complete degradation of the NPs, about 50% of the released protein was enzymatically active.

Which results are given for “rhBMP-2 conjugated NPs: rhBMP-2 conjugated to PLAF-NHS NPs”?
time to complete degradation of the NPs: 42 days; released protein enzymatically active (after complete degradation of the NPs): about 50%; percent of the released protein (active, ELISA) (incubation time 1 day in PBS): 2.9±0.2%; percent of the released protein (active, ELISA) (incubation time 5 days in PBS): 13.8±0.3%; percent of the released protein (active, ELISA) (incubation time 10 days in PBS): 26.1±0.9%; percent of the released protein (active, ELISA) (incubation time 21 days in PBS): 38.6±0.7%; percent of the released protein (active, ELISA) (incubation time 35 days in PBS): 45.8±0.9%; percent of the released protein (active, ELISA) (incubation time 42 days in PBS): 48.7±0.7%

For “recombinant human bone morphogenetic protein-2 [rhBMP-2]”, which “stability of the protein in the assay” value is on record?
The value was “stable for 30 days”.

And the “relative absorbance (ELISA, active rhBMP-2)” value (“relative absorbance” for short) (after 1 day)?
The value was 100.0±7.5.

And the “relative absorbance” value (after 15 days)?
The value was 102.0±7.6.

What about the “relative absorbance” value (after 30 days) of the same substance?
The value was 103.0±7.7.
